Reference: patent US7294691B1, “Soluble secreted α2δ-2calcium channel subunit polypeptide” (Warner Lambert Company, priority 2000, dated 2007)

Sequences of proteins named here, by UniProt entry; tags and fusion partners are left off. A line that says so, or that is headed by a name, gives the form on record, which may keep a tag or linker. Residues count along the entry.
UniProt Q9NY47, with tags, fused parts or gaps isoform Q9NY47-3: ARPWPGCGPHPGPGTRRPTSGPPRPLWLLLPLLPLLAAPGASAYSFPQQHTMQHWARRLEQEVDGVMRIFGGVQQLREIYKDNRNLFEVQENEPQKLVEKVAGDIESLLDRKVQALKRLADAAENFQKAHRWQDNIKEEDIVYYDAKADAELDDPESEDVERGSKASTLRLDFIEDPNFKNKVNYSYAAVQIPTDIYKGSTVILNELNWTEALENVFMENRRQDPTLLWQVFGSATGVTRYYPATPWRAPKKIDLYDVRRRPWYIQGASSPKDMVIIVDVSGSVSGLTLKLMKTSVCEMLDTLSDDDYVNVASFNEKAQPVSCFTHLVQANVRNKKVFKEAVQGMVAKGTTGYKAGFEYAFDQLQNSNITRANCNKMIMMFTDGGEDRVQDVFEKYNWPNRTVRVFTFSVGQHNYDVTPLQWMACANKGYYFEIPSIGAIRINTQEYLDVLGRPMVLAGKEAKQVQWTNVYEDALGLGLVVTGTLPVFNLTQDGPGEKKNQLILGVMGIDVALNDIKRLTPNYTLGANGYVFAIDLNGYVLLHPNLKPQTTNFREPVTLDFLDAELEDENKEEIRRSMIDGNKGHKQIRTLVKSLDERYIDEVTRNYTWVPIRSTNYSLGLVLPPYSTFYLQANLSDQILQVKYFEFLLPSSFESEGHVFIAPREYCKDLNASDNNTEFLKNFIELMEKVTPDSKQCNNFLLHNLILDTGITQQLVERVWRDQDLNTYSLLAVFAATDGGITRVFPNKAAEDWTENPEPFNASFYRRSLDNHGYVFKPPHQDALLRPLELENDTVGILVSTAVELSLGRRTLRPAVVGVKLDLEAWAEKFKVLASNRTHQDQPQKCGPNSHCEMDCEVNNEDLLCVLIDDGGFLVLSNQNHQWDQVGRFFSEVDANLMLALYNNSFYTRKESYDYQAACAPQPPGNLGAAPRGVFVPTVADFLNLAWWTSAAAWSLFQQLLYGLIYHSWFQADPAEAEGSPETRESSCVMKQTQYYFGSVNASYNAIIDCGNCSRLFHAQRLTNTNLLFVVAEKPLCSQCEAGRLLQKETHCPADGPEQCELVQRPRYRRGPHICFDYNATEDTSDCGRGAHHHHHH
UniProt O77773, 25-1091: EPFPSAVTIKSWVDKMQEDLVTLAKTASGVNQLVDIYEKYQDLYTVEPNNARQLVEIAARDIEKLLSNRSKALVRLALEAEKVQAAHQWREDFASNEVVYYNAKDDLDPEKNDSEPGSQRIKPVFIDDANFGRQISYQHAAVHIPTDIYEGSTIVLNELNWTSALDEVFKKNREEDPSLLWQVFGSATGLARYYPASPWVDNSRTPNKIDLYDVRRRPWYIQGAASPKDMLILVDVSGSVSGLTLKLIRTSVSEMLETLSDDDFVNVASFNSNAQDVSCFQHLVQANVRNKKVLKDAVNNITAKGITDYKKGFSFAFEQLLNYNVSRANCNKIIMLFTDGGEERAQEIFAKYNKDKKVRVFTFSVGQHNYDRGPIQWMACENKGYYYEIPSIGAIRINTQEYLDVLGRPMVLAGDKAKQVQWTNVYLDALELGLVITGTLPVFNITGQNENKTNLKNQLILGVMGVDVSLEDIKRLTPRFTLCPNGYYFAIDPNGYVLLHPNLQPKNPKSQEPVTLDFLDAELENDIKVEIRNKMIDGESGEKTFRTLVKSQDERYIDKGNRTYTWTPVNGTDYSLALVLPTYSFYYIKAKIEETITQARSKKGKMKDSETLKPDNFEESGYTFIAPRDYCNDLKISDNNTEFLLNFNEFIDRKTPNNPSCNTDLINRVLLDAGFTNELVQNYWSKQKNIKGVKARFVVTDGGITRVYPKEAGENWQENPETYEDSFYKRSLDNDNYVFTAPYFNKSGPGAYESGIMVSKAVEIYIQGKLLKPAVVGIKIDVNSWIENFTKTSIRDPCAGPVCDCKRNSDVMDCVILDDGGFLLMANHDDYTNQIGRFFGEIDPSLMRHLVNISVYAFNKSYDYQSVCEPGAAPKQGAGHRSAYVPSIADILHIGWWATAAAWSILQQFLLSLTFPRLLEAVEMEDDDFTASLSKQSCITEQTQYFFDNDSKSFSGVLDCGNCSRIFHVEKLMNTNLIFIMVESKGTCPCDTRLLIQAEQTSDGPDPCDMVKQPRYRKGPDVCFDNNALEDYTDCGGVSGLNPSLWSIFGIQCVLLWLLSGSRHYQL

Columns and labels:
[1] = target: T1, secreted soluble human α2δ-2 subunit polypeptide of SEQ ID No. 23 (s-α2δ-2-6His) (Homo sapiens, UniProt Q9NY47); test: Filter binding assay of [^3H]gabapentin binding to s-α2δ-2-6His; conditions: [^3H]gabapentin binding assay using s-α2δ-2-6His; Ki = IC50/(1 + [L]/KD); read-out: Ki (n = 3), filtration assay
T1 construct: made in house; host or cells: baculovirus / Sf9 insect cells

[2] = target: [^3H]gabapentin site in porcine cortical membranes (Sus scrofa, UniProt O77773); test: [^3H]gabapentin binding, porcine cortical membranes; conditions: read-out: IC50 arithmetic mean (n = 3) ± S.E.M.

(1-aminomethyl)cyclohexane acetic acid [Gabapentin]
Ki [1]: 20 nM | IC50 [2]: 42.1 ± 5.5 nM
